{
  "source": "paper PMC9201511",
  "about": "(RSC Advances, 2022)",
  "system": "pEGFR",
  "assay": "Western blot, EGF-induced phosphorylation of EGFR",
  "assay_type": "cell-based, human",
  "conditions": "A431, various concentrations, 24 h, then EGF 50 ng mL^−1 15 min",
  "data": [
    {"smiles": "COc1cc2ncnc(Nc3ccc(F)c(Cl)c3)c2cc1OCCCN1CCOCC1", "note": "[Gefitinib, gefitinib]", "values": [
      {"measurement": "level of phosphorylated EGFR (pEGFR)", "value": "reduced the level of phosphorylated EGFR"}
    ]}
  ]
}
